# Patent US11224222B2, “Synergistic compositions of dehydroacetic acid and methods for reducing yellowing in various end-user compositions” (ISP Investments LLC, priority 2015, dated 2022)
# Experiment: Solubility of DHA in aprotic and protic solvents
# Details: DHA in the named aprotic solvent (Table 8)
# Text: In order to choose the suitable solvent for preparing non-yellowing DHA composition, the different possible protic, aprotic solvents were selected and evaluated individually and also as their suitable mixture.
# In case of aprotic solvents, it was selected based on its compatibility with other ingredients present in the end-user products. Further, the regulatory requirement was also considered as an important element in choosing preferred aprotic solvent for preparing non-yellowing/reduced-yellowing DHA composition of the present application. The high content of DHA can be introduced in the solvent by dispersing or dissolving the DHA in their corresponding aprotic solvents. […] The various solvents selected are disclosed in Table 8.
# Further, the applicants have evaluated various protic solvents to understand their ability to render non-yellowing/reduced-yellowing DHA composition for employing in various end-user products that are aqueous in nature.
substance,measurement,value
Ethlyene carbonate,% of DHA soluble,None
